{
  "source": "patent US6416987B1",
  "about": "“Mutants of thymidylate synthase and uses thereof” (Sloan Kettering Institute for Cancer Research, priority 1997, dated 2002)",
  "key": {"[1]": {"test_system": "TS-negative FSthy21 cells transfected with L221S mutant human TS cDNA", "format": "cell-based, mouse", "conditions": "BW1843U89; L221S/clone (2) vs wild-type clone (1)"}, "[2]": {"test_system": "TS-negative FSthy21 cells transfected with G52S mutant human TS cDNA", "format": "cell-based, mouse", "conditions": "BW1843U89; G52S/clone (3) vs wild-type clone (1)"}, "[3]": {"test_system": "TS-negative FSthy21 cells transfected with L221A mutant human TS cDNA", "format": "cell-based, mouse", "conditions": "BW1843U89; L221A/clone (2) vs wild-type clone (1)"}, "[4]": {"test_system": "TS-negative FSthy21 cells transfected with D49G mutant human TS cDNA", "format": "cell-based, mouse", "conditions": "BW1843U89; D49G/clone (1) vs wild-type clone (1)"}, "[5]": {"test_system": "TS-negative FSthy21 cells transfected with K47E mutant human TS cDNA", "format": "cell-based, mouse", "conditions": "BW1843U89; K47E/clone (2) vs wild-type clone (1)"}, "[6]": {"test_system": "TS-negative FSthy21 cells transfected with F225W mutant human TS cDNA", "format": "cell-based, mouse", "conditions": "BW1843U89; F225W/clone (2) vs wild-type clone (1)"}, "[7]": {"test_system": "TS-negative FSthy21 cells transfected with I108A mutant human TS cDNA", "test": "Growth inhibition assay (alamar Blue), I108A transfectants", "conditions": "BW1843U89"}, "[8]": {"test_system": "TS-negative FSthy21 cells transfected with F225Y mutant human TS cDNA", "format": "cell-based, mouse", "conditions": "BW1843U89; F225Y/clone (1) vs wild-type clone (1)"}, "[9]": {"test_system": "TS-negative FSthy21 cells transfected with L221I mutant human TS cDNA", "format": "cell-based, mouse", "conditions": "BW1843U89; L221I/clone (1) vs wild-type clone (1)"}, "[10]": {"test_system": "TS-negative FSthy21 cells transfected with I108F mutant human TS cDNA", "format": "cell-based, mouse", "conditions": "BW1843U89; 1108F/clone (2) vs wild-type clone (1)"}, "[11]": {"test_system": "TS-negative FSthy21 cells transfected with F225L mutant human TS cDNA", "format": "cell-based, mouse", "conditions": "BW1843U89; F225L/clone (3) vs wild-type clone (1)"}},
  "data": [
    {"compound": "Cc1nc2ccc3ccc(CNc4ccc5c(c4)CN([C@@H](CCC(=O)O)C(=O)O)C5=O)cc3c2c(=O)[nH]1", "values": [
      {"measurement": "Ratio of IC50 values for mutant/wt cells", "setting": "[1]", "value": "2.7(1)"},
      {"measurement": "Ratio of IC50 values for mutant/wt cells", "setting": "[2]", "value": "3.0(1)"},
      {"measurement": "Ratio of IC50 values for mutant/wt cells", "setting": "[3]", "value": "2.7(1)"},
      {"measurement": "Ratio of IC50 values for mutant/wt cells", "setting": "[4]", "value": "5.3(1)"},
      {"measurement": "Ratio of IC50 values for mutant/wt cells", "setting": "[5]", "value": "2.7(1)"},
      {"measurement": "Ratio of IC50 values for mutant/wt cells", "setting": "[6]", "value": "22(1)"},
      {"measurement": "Ratio of IC50 values for mutant/wt cells", "setting": "[7]; 1108A/clone (1) vs wild-type clone (2)", "value": "6.2(2)^2"},
      {"measurement": "Ratio of IC50 values for mutant/wt cells", "setting": "[7]; 1108A/clone (2) vs wild-type clone (2)", "value": "7.4(2)"},
      {"measurement": "Ratio of IC50 values for mutant/wt cells", "setting": "[7]; 1108A/clone (3) vs wild-type clone (2)", "value": "7.8(2)"},
      {"measurement": "Ratio of IC50 values for mutant/wt cells", "setting": "[8]", "value": "2.6(1)"},
      {"measurement": "Ratio of IC50 values for mutant/wt cells", "setting": "[9]", "value": "2.7(1)"},
      {"measurement": "Ratio of IC50 values for mutant/wt cells", "setting": "[10]", "value": "1.2(1)"},
      {"measurement": "Ratio of IC50 values for mutant/wt cells", "setting": "[11]", "value": "2.8(1)"}
    ]}
  ]
}
